We go through 1 substance from patent US20230226207A1, “Camptothecin Drug Having High-Stability Hydrophilic Connecting Unit And Conjugate Thereof” (SICHUAN BAILI PHARM CO., LTD, priority 2020, published 2023).

In general, IC50 refers to the point on the concentration scale where inhibition reaches its midpoint. The low end stands for higher potency, the high end for lower potency.

Some results are limits rather than exact numbers.

For assay [1], the system named is N87 (human gastric cancer cells). Briefly: In vitro proliferation inhibition of N87 tumor cells (MTS). It is filed as cell-based. The following applies: 5 days. The method, then:
(§1) 1) Experimental Materials • Cells: from the cell bank of the Chinese Academy of Sciences; • Tumor cell culture medium: Gibco; • FBS: BIOWEST;
(§2) 2) Preparation of Medium • Growth medium (with 10% FBS, Penicillin/streptomycin (100 U/mL); • Detection medium (with 1% FBS, Penicillin/streptomycin (100 U/mL);
(§3) Turn on the UV lamp in the biological safety cabinet 30 minutes in advance, and ventilate for 3 minutes. Put the growth medium, detection medium, D-PBS and pancreatin into a 37° C. constant temperature water bath to preheat, then disinfect the surface with alcohol and put it in a biological safety cabinet. Select cells with a confluence of ˜80% (logarithmic growth phase), put them in a biological safety cabinet, aspirate the old medium, rinse with D-PBS, aspirate and discard, digest with trypsin for 2 to 3 minutes, and then add to growth Stop trypsin in the medium, and centrifuge at 500×g for 5 min. Aspirate the centrifugal supernatant, mix well with 4 mL detection medium, take 100 uL for counting (take out 50 uL cell fluid, add 50 μL 0.4% Trypan Blue Stain and mix well, and count after mixing). […]
(§4) Take out the MTS reagent after the test sample is exposed for 5 days. […] After the reaction, the 96-well plate was taken out, the OD490 nm absorbance value was detected in the microplate reader, and the data was recorded, sorted, and stored.

For assay [2], the system named is SK-BR-3 (human breast adenocarcinoma cells). Briefly: In vitro proliferation inhibition of SK-BR-3 tumor cells (MTS). It is filed as cell-based. Conditions: SK-BR-3 cells, 5 days. The method, then:
as §1, §2, §3, §4

The test system of assay [3] is NCI-H1975 (human non-small cell lung cancer adenocarcinoma cells) subcutaneously transplanted tumor. Briefly: In vivo efficacy on NCI-H1975 xenograft tumors. The arrangement: species or system Balb/c-nu nude mice. The following applies: NCI-H1975, 11.25 mg/kg, tail vein injection. The source says: (§5) 1) Experimental Materials • Cells: from the cell bank of the Chinese Academy of Sciences; • Tumor cell culture medium: Gibco; • Balb/c-nu nude mice: female, 5-7 weeks (the age of mice at the time of tumor cell inoculation), weighing 18.0-24.0 g, 170 (110 plus 60 surplus mice). Purchased from Beijing Weitong Lihua Laboratory Animal Technology Co., Ltd.; • Test substance and reference substance: • Test products: ADC-61 and ADC-6 were provided by Chengdu Dote Antibody Drug Co., Ltd. • Histidine buffer, provided by Chengdu Dote Antibody Pharmaceutical Co., Ltd. • 0.9% Sodium Chloride Injection: Kelun Pharmaceutical Co., Ltd.
NCI-H1975 (human non-small cell lung cancer adenocarcinoma cells) were cultured in RPMI1640 medium. NCI-H1975 cells in the exponential growth phase were collected and resuspended in RPMI1640 medium to a suitable concentration for subcutaneous tumor inoculation in mice.
85 female nude mice were inoculated subcutaneously on the right shoulder with 5×10^7 NCI-H1975 cells. When the average tumor volume is about 170 mm^3, they are randomly grouped according to the tumor size. Fifty-five tumor-bearing mice with appropriate tumor volume were selected and randomly divided into groups and the administration was started (tail vein injection, the administration volume was 0.1 ml/10 g). The grouping day is defined as day 0.
(§6) In the course of this experiment, the animal experiment operation was in accordance with the requirements of the standard operating procedures for the in vivo screening of anti-tumor drugs. After tumor inoculation, routine monitoring includes tumor growth (the tumor is measured twice a week) and the effect of treatment on the normal behavior of the animal. The specific content includes the activity of the experimental animal, food and drinking status, weight gain or loss (weight is measured weekly 2 times), eyes, coat and other abnormal conditions. The clinical symptoms observed during the experiment were recorded in the original data. Tumor volume calculation formula: tumor volume (mm^3)=½×(a×b^2) (where a represents the long diameter and b represents the short diameter). Manually recorded data was used in the experiment, including the measurement of the length and short diameter of the tumor and the weighing of the animal's weight.
(§7) The relative tumor proliferation rate, T/C %, is the percentage value of the treatment group and the control group relative to the tumor volume or tumor weight at a certain point in time. Calculated as follows:
(§8) T/C %=TRTV/CRTV×100% (TRTV: average RTV in the treatment group; CRTV: average RTV in the vehicle control group; RTV=Vt/V0, V0 is the tumor volume of the animal at the time of grouping, and Vt is the aminal's tumor volume after treatment Tumor volume); or T/C %=TTW/CTW×100% (TTW: average tumor weight at the end of the experiment in the treatment group; CTW: average tumor weight at the end of the experiment in the vehicle control group).
(§9) [T and C are the relative tumor volume (RTV) or tumor weight (TW) of the treatment group and the control group at a specific time point, respectively].

Assay [4] relates to NCI-N87 (human gastric cancer cells) subcutaneously transplanted tumor. Briefly: In vivo efficacy on NCI-N87 xenografts. The arrangement: species or system Balb/c-nu nude mice. The following applies: NCI-N87, 11.25 mg/kg (naked antibody), tail vein injection.
Excerpt: as §5
NCI-N87 (human gastric cancer cells) were cultured in RPMI1640 medium. NCI-N87 cells in the exponential growth phase were collected, and RPMI1640 medium was resuspended to a suitable concentration for subcutaneous tumor inoculation in mice.
85 female nude mice were inoculated subcutaneously on the right shoulder with 5×10^7 NCI-N87 cells. When the average tumor volume is 170 mm they are randomly grouped according to the tumor size. Fifty-five tumor-bearing mice with appropriate tumor volume were selected and randomly divided into groups and the administration was started (tail vein injection, the administration volume was 0.1 ml/10 g). The grouping day is defined as day 0,
as §6, §7, §8, §9

With “Trastuzumab: naked antibody, anti-HER2 monoclonal antibody (trade name Herceptin), SEQ ID NO: 1 and 2”, the IC50 in assay [1] and in assay [2] was greater than 500 nM throughout. The “Average Tumor Volume” value in assay [3] (D 0) is 172.19 mm^3; in assay [3] (D 3) it was 296.69 mm^3; in assay [3] (D 7), 627.87 mm^3; in assay [3] (D 10), 887.25 mm^3; in assay [3] (D 14), 1094.88 mm^3; in assay [3] (D 17), 1458.59 mm^3. The “Average Tumor Volume” value came out at 1659.49 mm^3 in assay [3] (D 21); 1893.14 mm^3 in assay [3] (D 24); 1795.55 mm^3 in assay [3] (D 28); 1900.54 mm^3 in assay [3] (D 31); 180.57 mm^3 in assay [4] (D 0); 226.45 mm^3 in assay [4] (D 3). In addition, the “Average Tumor Volume” value in assay [4] (D 7) is recorded as 322.76 mm^3; in assay [4] (D 10), 445.83 mm^3; in assay [4] (D 14), 542.50 mm^3; in assay [4] (D 17) it was 631.28 mm^3; in assay [4] (D 21), 725.55 mm^3; in assay [4] (D 24) it was 848.82 mm^3. The “Average Tumor Volume” value in assay [4] (D 28) turned out to be 942.65 mm^3; in assay [4] (D 31) it was 1004.93 mm^3.
